Biological target: T1, PKA regulatory subunit RIIβ (rat, type IIβ) fused to Venus YFP PCA fragment F[2] (rat, UniProt P12369)
T1 construct: Expressed in COS7 or HEK293 cells from pcDNA3.1; also called RIIβ-F[2]; RegIIβ; not shown: Venus variant of yellow fluorescent protein (YFP), C-terminal fragment F[2], amino acids 159-239
Assay: Venus YFP protein-fragment complementation assay in COS7 cells

B1: Gαi1 fused to Venus YFP PCA fragment F[1] (other, UniProt B2RSH2 1-354, looked up)
chain: MGCTLSAEDKAAVERSKMIDRNLREDGEKAAREVKLLLLGAGESGKSTIVKQMKIIHEAGYSEEECKQYKAVVYSNTIQSIIAIIRAMGRLKIDFGDSARADDARQLFVLAGAAEEGFMTAELAGVIKRLWKDSGVQACFNRSREYQLNDSAAYYLNDLDRIAQPNYIPTQQDVLRTRVKTTGIVETHFTFKDLHFKMFDVGGQRSERKKWIHCFEGVTAIIFCVALSDYDLVLAEDEEMNRMHESMKLFDSICNNKWFTDTSIILFLNKKDLFEEKIKKSPLTICYPEYAGSNTYEEAAAYIQCQFEDLNKRKDTKEIYTHFTCATDTKNVQFVFDAVTDVIIKNNLKDCGLF
notes: Prey fused to F[1]; also called Gαi isoform 1 prey; not shown: Venus variant of yellow fluorescent protein (YFP), N-terminal fragment F[1], amino acids 1-158
  binding result: binds

Source: US20150005237A1 (UNIVERSIT T INNSBRUCK, published 2015)
